Source: patent US8735391B2, “Synthesis of functionalized octahydro-isoquinolin-1-one-8-carboxamides, octahydro-isoquinolin-1-one-8-carboxylic esters and analogs, and therapeutic methods” (University of Kansas, priority 2008, dated 2014)

By UniProt entry, the sequences of proteins in these tests, tags left out.
UniProt P41145, whole entry: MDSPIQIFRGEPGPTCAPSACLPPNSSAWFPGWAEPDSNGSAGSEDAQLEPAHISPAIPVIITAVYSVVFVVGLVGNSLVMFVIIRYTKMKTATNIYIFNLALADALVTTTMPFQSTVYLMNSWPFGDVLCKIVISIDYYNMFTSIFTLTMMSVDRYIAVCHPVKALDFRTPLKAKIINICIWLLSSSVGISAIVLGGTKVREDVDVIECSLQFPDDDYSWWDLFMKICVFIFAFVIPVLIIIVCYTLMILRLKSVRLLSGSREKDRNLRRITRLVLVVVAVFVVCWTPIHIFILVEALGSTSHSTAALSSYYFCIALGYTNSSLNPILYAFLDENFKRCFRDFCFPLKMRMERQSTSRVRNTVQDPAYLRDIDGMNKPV

Assays:
[1] = target: T1, KOR (Homo sapiens, UniProt P41145); assay: Opioid secondary binding, KOR (Tables 4, 5, 8, 9); settings: read-out: KOR, Ki; Opioid secondary binding activity for Formula 10 analogs
[2] = target: T1, KOR; assay: [35S]GTPγS binding functional agonist assay on membranes of CHO cells expressing hKOR (reference agonist U69593); format: biochemical; settings: test compound at 10 micromolar; N=4; reference agonist = 100%; CHO-cell line expressing hKOR

Structure (SMILES) | Ki [1] [nM] | KOR agonist (average percent efficacy relative to cognate agonist) [2] [%]
CCCCN1CCC2C=CCC(C(=O)Nc3nccs3)C2C1=O (stereo not shown) | 355 | 93.8
O=C(NC1CCCCC1)[C@H]1CC=C[C@H]2CCN(Cc3ccccc3)C(=O)[C@@H]12 | 213 | 
O=C(Nc1nccs1)[C@H]1CC=C[C@H]2CCN(C3CCCCC3)C(=O)[C@@H]12 (relative stereo) | 160 | 129.2
O=C(Nc1nccs1)[C@H]1CC=C[C@H]2CCN(Cc3ccccc3)C(=O)[C@@H]12 (relative stereo) | 200 | 121.5
